{"source": "patent US11535851B2", "about": "“Reagents for treatment of hepatitis B virus (HBV) infection and use thereof” (priority 2016, dated 2022)", "key": {"HBV genotype C": {"test_system": "HBV genotype C", "assay": "Intracellular (liver) HBV DNA by quantitative PCR in PXB chimeric mouse model", "type": "in vivo", "conditions": "entecavir or pegylated interferon alone; FIG. 12, left panel", "protocol": "(§1) HBV-infected mice treated with saline served as the negative controls. Groups treated with standard of care agents against HBV served as positive controls: entecavir was administered daily at 6 μg/kg or pegylated interferon was given twice weekly at 30 μg/kg. For the anti-HBV ddRNAi treatment groups, ssAAV8-HBV-shRNAx3-v1, scAAV8-HBV-shRNAx3-v1 or ssAAV8-HBV-shmiRx3-v1 was administered once at a dose of 2×10E+13 vg/kg by a low pressure tail vein injection at Day 0. Co-treated animals started daily ETV at Day 1 or were dosed the first time with PEG-IFN on Day 4\nAfter the completion of blood sampling on Day 91, all the surviving animals were kept under isoflurane anesthesia and sacrificed by cardiac puncture and exsanguination. […] After the incubation, the RNAlater® solution was removed and the liver pieces were stored at −80° C. for subsequent quantification of the various hepatic HBV DNA and RNAs as well as expression levels of recombinant AAV derived shRNA or shmiR RNAs.\nTo determine the level of hepatic HBV DNA following treatment, HBV DNA was extracted from frozen RNAlater®-preserved liver tissue using the DNeasy® Blood & Tissue Kits (Qiagen K. K., Tokyo, Japan). The DNA was dissolved in 200 μL nuclease-free water, after which the concentration of the DNA solution was determined using BioPhotometer 6131 (Eppendorf Co., Ltd., Tokyo, Japan). […]"}, "HBV viral transcripts": {"test_system": "HBV viral transcripts", "assay": "Liver HBV RNA levels by RT-QPCR in PXB chimeric mouse model", "type": "in vivo", "conditions": "transcripts corresponding to shmiR-6, shmiR-15 and shmiR-12; FIG. 11", "protocol": "as §1\nAfter the completion of blood sampling on Day 91, all the surviving animals were kept under isoflurane anesthesia and sacrificed by cardiac puncture and exsanguination. Once sacrificed, whole livers were harvested from mice and weighed. […] After the incubation, the RNAlater® solution was removed and the liver pieces were stored at −80° C. for subsequent quantification of the various hepatic HBV DNA and RNAs as well as expression levels of recombinant AAV derived shRNA or shmiR RNAs.\nReal-time PCR was used to quantitate the liver production of anti-HBV effector RNAi molecules and inhibition of HBV mRNA transcript as described in Examples 5 and 6.\nUsing primer/probe sets that are located near each of the RNAi-induced cleavage sites, the levels of HBV RNA was assessed by RT-QPCR (FIG. 11). […]"}}, "note": "Entries after “also recorded” stand apart in the source; their conditions may differ."}
{"substance": "pegylated interferon: HBV standard of care agent, given twice weekly at 30 μg/kg", "values": [{"measurement": "drop in intracellular DNA levels", "setting": "HBV genotype C", "result": 2, "unit": "logs"}, {"measurement": "HBV RNA levels (liver)", "setting": "HBV viral transcripts", "result": "reduced; also recorded: strong levels of activity"}]}
